# Results published in patent US10883143B2, “Compositions and methods for enhancing odorant receptor activity” (DUKE UNIVERSITY, priority 2009, dated 2021).
# The chains behind the UniProt entries cited, without tags or fusion partners.
# UniProt Q9ERZ3, whole entry: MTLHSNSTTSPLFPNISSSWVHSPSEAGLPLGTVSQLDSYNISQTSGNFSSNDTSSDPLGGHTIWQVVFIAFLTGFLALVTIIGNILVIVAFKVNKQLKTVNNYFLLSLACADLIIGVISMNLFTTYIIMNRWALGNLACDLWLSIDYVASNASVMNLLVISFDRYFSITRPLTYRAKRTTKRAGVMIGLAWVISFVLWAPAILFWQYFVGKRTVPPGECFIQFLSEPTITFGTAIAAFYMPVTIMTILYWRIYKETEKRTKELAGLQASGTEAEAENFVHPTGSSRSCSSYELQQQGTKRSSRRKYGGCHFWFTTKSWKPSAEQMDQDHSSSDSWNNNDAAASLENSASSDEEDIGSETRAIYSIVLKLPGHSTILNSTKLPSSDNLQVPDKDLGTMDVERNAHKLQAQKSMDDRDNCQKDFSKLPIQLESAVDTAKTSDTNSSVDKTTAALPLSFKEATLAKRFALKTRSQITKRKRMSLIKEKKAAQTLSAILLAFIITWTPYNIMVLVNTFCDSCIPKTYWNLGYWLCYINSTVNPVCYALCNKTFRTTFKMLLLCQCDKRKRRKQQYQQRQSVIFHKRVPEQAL
# “Also recorded” adds a separate entry of the source.
# Experiments:
# M3 = target: T1, M3 (Mus musculus, UniProt Q9ERZ3); test: Calcium imaging with HEK293T cells expressing M3; assay type: cell-based; details: carbachol 10^−7M
# T1 construct: The open reading frames were amplified using Phusion polymerase; expressed in transfected cells; host or cells: HEK293T
# From the text: Since M3 potentiates OR signaling, the possibility that OR activation may also enhance M3 signaling was considered.
# [1] = target: T2, OR-S6 coexpressed with M3 (Mus musculus, UniProt Q9ERZ3); test: CRE-luciferase reporter assay of OR activation in HEK293T cells; assay type: cell-based
# T2 construct: The open reading frames were amplified using Phusion polymerase; expressed in transfected cells; host or cells: HEK293T
# Procedure: Given that GPCRs that form heteromeric interactions often show functional co-modulation, experiments were conducted to determine if altering M3 activity directly affects the odor-mediated activation of ORs. […] HEK293T cells Hana3A cells were maintained in minimal essential medium (MEM) containing 10% fetal bovine serum (M10) and penicillin-streptomycin and amphotericin solution. Lipofectamine 2000 (Invitrogen) was used for transfection following manufacturer's protocols. […] Briefly, cAMP response element (CRE)-luciferase (Stratagene) was used to measure OR activation. […] Cells were plated on poly-D-lysine-coated 96-well plates (NUNC) 2 days prior to assay. Cells were transfected with ORs in either Hana3A or HEK293T cell lines along with various combinations of RTP1S, Ric-8b, M3, CRE-luciferase, and pRL-SV40. 18-24 hours after transfection, cells were rinsed with 50 μl of CD293 (Invitrogen) and stimulated with 25 μl of odorant solution dissolved in CD293. Cells were incubated for 4 hours at 37° C. and 5% CO2 before luciferase assays. Protocols for measuring luciferase and Renilla luciferase activities were as described by the manufacturer (Promega). Normalized luciferase activity was calculated with the formula (LN−Lmin)/(Lmax−Lmin), where LN is the luminescence of firefly luciferase in response to the odorant, Lmin is the minimum luciferase value on a plate or set of plates, and Lmax is the maximum luciferase value on a plate or set of plates. The data was analyzed with Microsoft Excel and GraphPad Prism 5. Odorants and muscarinic agonists and antagonists were from Sigma except for darifenacin, which was purchased from Santa Cruz.
compound,measurement,setting,value
C[N+](C)(C)CCOC(N)=O [carbachol],calcium response,M3,robust calcium response; also recorded: calcium influx
same,"reporter gene expression, compound alone","[1]; 10^−7M, no odor, HEK293T cells",did not induce the reporter gene expression
same,OR-S6 activation by nonanedioic acid on co-stimulation with muscarinic ligand,"[1]; HEK293T coexpressing M3 and OR-S6, carbachol 10^−7M, atropine 10^−6M",further enhanced OR-S6 activation
same,"CRE-luciferase reporter response (cAMP levels) without odor, low carbachol concentration","[1]; concentrations lower than 10^−6M, cells expressing M3, OR and RTP1S",not significantly alter cAMP levels
same,"CRE-luciferase reporter response without odor, high carbachol concentration","[1]; more than 1 uM carbachol, only when OR, RTP1S and M3 coexpressed",dramatic synergistic effects; also recorded: induced higher responses
